Results from US20250122502A1, “Bifunctional Molecules and Methods of Using Thereof” (FLAGSHIP PIONEERING, INC., priority 2021, published 2025).

By UniProt entry, the sequences of proteins in these tests, tags left out. Where a name states a change or a piece, a line headed by the entry shows the natural chain unless it says otherwise.
UniProt Q06187: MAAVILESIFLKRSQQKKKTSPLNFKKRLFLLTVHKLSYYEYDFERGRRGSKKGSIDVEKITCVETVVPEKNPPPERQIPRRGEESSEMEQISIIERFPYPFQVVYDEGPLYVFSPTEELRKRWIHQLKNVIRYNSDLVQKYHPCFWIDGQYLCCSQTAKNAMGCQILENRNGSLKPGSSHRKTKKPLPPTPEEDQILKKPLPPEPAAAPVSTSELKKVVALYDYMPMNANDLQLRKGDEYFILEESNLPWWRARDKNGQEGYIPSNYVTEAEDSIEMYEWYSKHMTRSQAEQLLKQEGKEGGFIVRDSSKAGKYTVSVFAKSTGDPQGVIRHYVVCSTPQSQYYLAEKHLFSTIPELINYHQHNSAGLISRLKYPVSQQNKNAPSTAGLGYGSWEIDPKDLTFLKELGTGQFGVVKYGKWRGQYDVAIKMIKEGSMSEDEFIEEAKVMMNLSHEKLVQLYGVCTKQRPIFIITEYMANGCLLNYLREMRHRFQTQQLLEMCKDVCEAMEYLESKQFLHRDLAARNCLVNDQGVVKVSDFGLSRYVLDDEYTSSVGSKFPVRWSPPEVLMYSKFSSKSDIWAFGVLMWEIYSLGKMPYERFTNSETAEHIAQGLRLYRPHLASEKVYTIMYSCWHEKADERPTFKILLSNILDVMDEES

Target: T1, purified BTK protein and Cy5-labeled IVT RNA (Homo sapiens, UniProt Q06187)
T1 construct: purchased Active Motif 81083
Test: In vitro ternary complex formation assay (PAGE gel shift)
Type: binding
Conditions: 90 minutes room temperature; for supershift of BTK protein band in the presence of Cy5-IVT RNA (ternary complex): 5 pmol ASOi, 1 pmol BTK, 10 pmol Cy5-IVT RNA
Description: In one reaction (#5), 5 pmol antisense RNA oligo of the sequence 5′CGUUAACUAGGCUUUA3′ (hereafter called N33-ASOi) conjugated at the 5′ end with Ibrutinib was mixed in PBS with 1 pmol purified BTK protein (Active Motif #81083), 200 pmol yeast rRNA (as non-specific blocker) and 10 pmol Cy5-labeled IVT RNA of the sequence 5′[…] […] […] AAGGCGAA3′ (SEQ ID NO: 51).
All reactions were incubated at room temperature for 90 minutes protected from light, then mixed with a loading buffer containing final 0.5% SDS and 10% glycerol, and complexes separated by PAGE on a Bis-Tris 4-12% gel including an IRDye700 pre-stained protein molecular weight marker (LiCor). Immediately following electrophoresis, the gel was imaged using a LiCor Odyssey system with the 700 nm channel to identify the position of Cy5-IVT-RNA bands and MW marker. Subsequently, proteins in the gel were stained using InstantBlue colloidal coomassie stain (Expedeon) and re-imaged using transmitted light. The two images were lined up using size markers and lane positions to identify the relative positions of BTK protein bands and Cy5-IVT target RNA. (FIG. 1)

N33-ASOi: antisense RNA oligo 5′CGUUAACUAGGCUUUA3′ conjugated at the 5′ end with Ibrutinib (5' Ibrutinib conjugate)
increase in MW of the BTK protein band (binary complex formation) (1 pmol BTK protein plus ASOi): binary complex formation
supershift of BTK protein band in the presence of Cy5-IVT RNA (ternary complex): supershift

SCR-ASOi: non-complementary RNA oligo 5′AGAGGUGGCGUGGUAG3′ conjugated at the 5′ end with Ibrutinib (5' Ibrutinib conjugate)
supershift of BTK protein band in the presence of Cy5-IVT RNA (ternary complex): complex stayed at arrow B level
